Format: in vivo, New Zealand White Rabbit
Settings: rabbit, up to 72 h except for 0.5 h following administration; 0.1 mg/eye

mean plasma concentrations: below the lower limit of quantitation
Structure (SMILES): COc1ccc(-c2ccnc3cc(C(=O)N4CCN(C(=O)c5ccccc5)[C@@H](C)C4)nn23)cc1OC [16d, (S)-(4-Benzoyl-3-methylpiperazin-1-yl)(7-(3,4-dimethoxyphenyl)pyrazolo[1,5-a]pyrimidin-2-yl)methanone]
